In US10717799B2, “Copolymers as excipients for effective solubilization of poorly water-soluble substances from solid mixtures” (Dow Global Technologies LLC, priority 2015, dated 2020):

Columns and labels:
[1] = pH 6.5
[2] = pH 6.5; remark: listed apart in the source

- c(30 min) concentration of solubilized Phenytoin [1]: 352 mg/L
- c(90 min) concentration of solubilized Phenytoin [1]: 295 mg/L
- c(180 min) concentration of solubilized Phenytoin [1]: 296 mg/L
- solubilized drug concentration after 360 min [2]: ≈ 130 mg/L
- solubilized drug concentration within the first 4 min [2]: above 200 mg/L
Substance: hydroxypropyl methyl cellulose acetate succinate [HPMCAS]
